# Test results from patent US20040241755A1, “Human cell assay to determine effect of sample compounds on Col2 enhancer expression” (Pfizer Inc., priority 2003, published 2004).
# B1: BMP-2: BMP growth factor (protein, UniProt P12643 283-396, looked up)
# Bone morphogenetic protein 2: QAKHKQRKRLKSSCKRHPLYVDFSDVGWNDWIVAPPGYHAFYCHGECPFPLADHLNSTNHAIVQTLVNSVNSKIPKACCVPTELSAISMLYLDENEKVVLKNYQDMVVEGCGCR
# System: 48 bp Col2a1 enhancer
# Experiment: 48 bp Col2a1 enhancer luciferase reporter transfection assay in SW1353 cells
# Assay type: cell-based, human
# Conditions: concentration not given; data not shown
# Protocol: Reagents were obtained from Invitrogen unless otherwise noted. SW1353 human chondrosarcoma cells (ATCC #HTB-94) were grown in DMEM 10% FBS 10 ug/ml Gentamicin and passaged (2 times a week) using with 0.25% Trypsin-EDTA.
# Cells were plated at ˜10^6 cells per flask into a T-75 in 10 ml growth media or an equivalent based on culture vessel surface area, 24 hours prior to transfection. For each transfection, 24 ul of Transit (PanVera) was diluted into 250 ul OptiMEM and 12 ug of reporter plasmid Col2a1 enhancer construct (48 bp Col2a1, was added. After 15-30 minute incubation, growth media was removed from the cells, and the DNA-transfection reagent complexes diluted to a final volume of 10 ml with OptiMEM and added to the cells. Transfection media was replaced with fresh media after 7 hours. 24 hours post transfection the cells were treated with media alone or indicated factors. Cells were harvested 48 hours post-transfection and luciferase activity measured using the LucLite and the TopCount LSC plate reader (Packard).
# We analyzed the activity of the 48 bp Col2a1 enhancer construct (48 bp Col2a1) in transfected SW1353 cells. SW1353 cells were transfected with a constant amount of reporter (0.25 ug), with or without increasing amounts of the Sox9 expression construct or empty vector.
molecule,measurement,value
B1,effect on Sox9 activity / responsiveness of SW1353 cells transfected with the 48 bp Col2a1 enhancer,unresponsive
